These compounds were tested against Voltage-gated inwardly rectifying potassium channel KCNH2 (Homo sapiens, UniProt Q12809) (assay: Displacement of [3H]dofetilide from HEK cells expressing hERG voltage dependent IKr potassium channel Kv11.1).

By UniProt entry, the sequences of proteins in these tests, tags left out. Where a name states a change or a piece, a line headed by the entry shows the natural chain unless it says otherwise.
UniProt Q12809: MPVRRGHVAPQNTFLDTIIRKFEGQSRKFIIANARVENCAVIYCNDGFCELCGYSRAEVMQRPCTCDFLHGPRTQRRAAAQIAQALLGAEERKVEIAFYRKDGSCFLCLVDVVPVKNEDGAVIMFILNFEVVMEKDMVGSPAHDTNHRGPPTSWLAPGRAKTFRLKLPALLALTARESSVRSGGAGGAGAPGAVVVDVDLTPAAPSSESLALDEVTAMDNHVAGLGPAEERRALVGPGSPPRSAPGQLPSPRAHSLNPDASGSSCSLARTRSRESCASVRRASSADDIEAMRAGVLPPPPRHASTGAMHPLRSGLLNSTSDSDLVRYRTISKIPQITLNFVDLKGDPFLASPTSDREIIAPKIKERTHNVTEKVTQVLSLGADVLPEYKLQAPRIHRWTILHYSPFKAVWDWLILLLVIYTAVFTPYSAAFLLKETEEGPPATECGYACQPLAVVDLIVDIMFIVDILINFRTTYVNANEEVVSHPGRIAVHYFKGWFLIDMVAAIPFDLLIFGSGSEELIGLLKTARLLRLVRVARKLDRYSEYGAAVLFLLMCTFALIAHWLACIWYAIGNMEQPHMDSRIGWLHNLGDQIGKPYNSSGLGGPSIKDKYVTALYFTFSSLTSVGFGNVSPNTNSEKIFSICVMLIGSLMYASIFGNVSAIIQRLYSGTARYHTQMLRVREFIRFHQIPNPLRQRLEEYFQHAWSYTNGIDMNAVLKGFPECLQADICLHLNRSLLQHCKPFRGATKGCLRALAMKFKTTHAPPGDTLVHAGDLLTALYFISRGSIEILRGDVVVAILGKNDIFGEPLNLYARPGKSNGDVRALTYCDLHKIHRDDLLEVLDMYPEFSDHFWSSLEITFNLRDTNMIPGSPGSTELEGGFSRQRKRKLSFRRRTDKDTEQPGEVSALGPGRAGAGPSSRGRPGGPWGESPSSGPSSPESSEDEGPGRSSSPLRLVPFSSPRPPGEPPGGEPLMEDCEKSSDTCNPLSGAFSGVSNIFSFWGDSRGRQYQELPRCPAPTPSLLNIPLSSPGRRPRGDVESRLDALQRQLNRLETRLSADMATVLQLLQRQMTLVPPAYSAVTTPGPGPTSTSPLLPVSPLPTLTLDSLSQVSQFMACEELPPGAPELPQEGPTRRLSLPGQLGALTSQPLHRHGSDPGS

Row | SMILES | Ki [µM]
1 | Fc1ccc2c([C@@H]3CNCC[C@H]3F)c(-c3cccnc3)[nH]c2c1 | 2.5
2 | c1ccc(-c2[nH]c3ccccc3c2C2CCCNC2)cc1 (stereo unspecified) | 4.9
3 | F[C@@H]1CCNC[C@H]1c1c(-c2ccccc2)[nH]c2ccccc12 | > 1.1
4 | COC(=O)c1[nH]c2cc(F)ccc2c1[C@@H]1CNCC[C@H]1F | 8.2
5 | CN1CCCCC1c1c(-c2ccccc2)[nH]c2ccccc12 (stereo unspecified) | 7
6 | Fc1ccc2c([C@@H]3CNCC[C@H]3F)c(C3CCCCC3)[nH]c2c1 | 5.4
